Data on 45 compounds can be found in US20240327383A1 (priority 2021, published 2024).

By UniProt entry, the sequences of proteins in these tests, tags left out.
UniProt P41146, whole entry: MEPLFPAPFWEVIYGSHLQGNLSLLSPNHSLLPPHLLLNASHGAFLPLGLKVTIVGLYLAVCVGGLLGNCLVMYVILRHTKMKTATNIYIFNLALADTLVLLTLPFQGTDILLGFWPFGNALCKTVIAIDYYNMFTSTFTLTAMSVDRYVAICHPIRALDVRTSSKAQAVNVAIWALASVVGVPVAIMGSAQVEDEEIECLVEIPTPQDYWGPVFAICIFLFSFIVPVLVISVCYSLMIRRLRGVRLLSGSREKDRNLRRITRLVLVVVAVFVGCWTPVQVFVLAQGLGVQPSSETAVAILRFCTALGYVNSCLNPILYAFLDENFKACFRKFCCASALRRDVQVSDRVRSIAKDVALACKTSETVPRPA
UniProt P35372, whole entry: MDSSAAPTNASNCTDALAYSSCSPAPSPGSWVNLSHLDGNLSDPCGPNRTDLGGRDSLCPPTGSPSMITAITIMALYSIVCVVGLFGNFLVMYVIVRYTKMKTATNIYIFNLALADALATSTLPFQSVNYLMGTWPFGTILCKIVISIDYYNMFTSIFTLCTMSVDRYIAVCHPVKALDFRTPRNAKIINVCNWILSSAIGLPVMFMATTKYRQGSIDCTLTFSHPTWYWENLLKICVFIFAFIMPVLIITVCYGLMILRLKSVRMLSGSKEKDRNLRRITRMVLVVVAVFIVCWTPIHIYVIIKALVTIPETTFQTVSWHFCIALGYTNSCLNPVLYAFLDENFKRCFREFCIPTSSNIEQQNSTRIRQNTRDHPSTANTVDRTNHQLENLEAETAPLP

For test [1], the target named is hNOPr (Homo sapiens, UniProt P41146). Kind of test: Opioid receptor affinity, radioligand binding ([3H]-Nociceptin), HEK293-NOP receptor cell membrane. The note with it: read-out: Opioid receptor affinity Ki hNOPr; [3H]-Nociceptin 0.5 nM.
Test [2] concerns the target hMOPr (Homo sapiens, UniProt P35372). Description: Opioid receptor affinity, radioligand binding ([3H]-DAMGO), CHO-K1 MOP receptor cell membrane. The note with it: summary of the binding panel MOP/NOP/KOP/DOP.

As usually defined, the Ki is the equilibrium dissociation constant of an inhibitor or competing ligand from its target.

Regarding `CCC1CCC(N2CCC(n3c(=O)n(CCN4CCOCC4)c4cc(Cl)c(Cl)cc43)CC2)CC1` (stereo not shown), the Ki in test [1] was found to be 29.4 nM.
For `CC(C)C1CCC(N2CCC(n3c(=O)n(CCN4CCOCC4)c4cc(F)c(F)cc43)CC2)CC1` (stereo not shown), the Ki in test [1] was 38.9 nM.
Still for that read-out and setting: the value for `COc1cc(Cl)ccc1CN1CCC(n2c(=O)n(CCN3CCOCC3)c3cc(Cl)c(Cl)cc32)CC1` was 52.5 nM.
Take `Cc1ccccc1CN1CCC(n2c(=O)n(CCN3CCOCC3)c3cc(Cl)c(Cl)cc32)CC1`: the Ki in test [1] turned out to be 20.9 nM.
Still for that read-out and setting: to `Cc1cc(C)c(CN2CCC(n3c(=O)n(CCN4CCOCC4)c4cc(Cl)c(Cl)cc43)CC2)c(C)c1` belongs 559 nM; to `CC(C)C1CCC(N2CCC(n3c(=O)n(CCN4CCOCC4)c4cc(F)c(Cl)cc43)CC2)CC1` (stereo not shown), 67.9 nM; to `O=c1n(CCN2CCOCC2)c2cc(Cl)c(Cl)cc2n1C1CCN(Cc2ccc(Cl)cc2F)CC1`, 211 nM.
The same measure, in the same setting: the value for `O=c1n(CCN2CCOCC2)c2cc(F)c(F)cc2n1C1CCN(Cc2ccc(F)cc2Cl)CC1` was 61.2 nM.
On the same count and under the same terms, the value for `O=c1n(CC2CO2)c2cc(Cl)c(Cl)cc2n1C1CCN(Cc2ccccc2F)CC1` (stereo not shown) was 9.33 nM; that for `CN(C)CCn1c(=O)n(C2CCN(Cc3ccc(F)cc3)CC2)c2cc(Cl)c(Cl)cc21` was 42.5 nM; that for `O=c1n(CCN2CCOCC2)c2cc(Cl)c(Cl)cc2n1C1CCN(Cc2ccccc2F)CC1` was 32.7 nM.
Regarding `CC(C)C1CCC(N2CCC(n3c(=O)n(CCN4CCOCC4)c4cc(Cl)c(F)cc43)CC2)CC1` (stereo not shown), in test [1], the Ki was 82.8 nM.
On to `O=c1n(CCN2CCS(=O)(=O)CC2)c2cc(Cl)c(Cl)cc2n1C1CCN(Cc2ccc(F)cc2Cl)CC1`, for which, in test [1], the Ki is 14.5 nM.
Take `O=c1n(CCN2CC3(COC3)C2)c2cc(Cl)c(Cl)cc2n1C1CCN(Cc2ccc(F)cc2Cl)CC1`: the Ki in test [1] turned out to be 7.1 nM.
`O=C1CN(CCn2c(=O)n(C3CCN(Cc4ccc(F)cc4Cl)CC3)c3cc(Cl)c(Cl)cc32)CCN1`: the Ki in test [1] was 13.6 nM.
On the same count and under the same terms, the value for `CC(C)[C@H]1CC[C@@H](N2CCC(n3c(=O)n(CCN4CCOCC4)c4ccc(F)cc43)CC2)CC1` was 16.5 nM; that for `O=c1n(CCN2CCOCC2)c2cc(Cl)c(Cl)cc2n1C1CCN(C2Cc3ccccc3C2)CC1` was 17.5 nM; that for `O=c1n(CCN2CCOCC2)c2cc(Cl)c(Cl)cc2n1C1CCN(Cc2ccc(Cl)s2)CC1` was 518 nM.
In the case of `CC(C)[C@H]1CC[C@@H](N2CCC(n3c(=O)n(CCN(C)C)c4cc(Cl)c(Cl)cc43)CC2)CC1`, the “selectivity and affinity for MOP receptor and NOP receptor (in words)” value in test [2] is “high selectivity and high affinity for MOP receptor and NOP receptor”. The Ki in test [1] was found to be 4.12 nM.
In the case of `O=c1n(CCN2CCOCC2)c2cc(Cl)c(F)cc2n1C1CCN(Cc2ccc(F)cc2Cl)CC1`, in test [1], the Ki is 18.1 nM.
On the same count and under the same terms, the value for `CC(C)C1CCC(N2CCC(n3c(=O)n(CCN4CCOCC4)c4cc(Cl)c(Cl)cc43)CC2)CC1` (stereo not shown) was 58.5 nM.
In the case of `CN(C)C(=O)Cn1c(=O)n(C2CCN(Cc3ccc(F)cc3Cl)CC2)c2cc(Cl)c(Cl)cc21`, in test [2], the “selectivity and affinity for MOP receptor and KOP receptor (in words)” value is “high selectivity and high affinity for MOP receptor and KOP receptor”. Besides, the Ki in test [1] stood at 67.9 nM.
For `O=c1n(CCN2CCOCC2)c2cc(Cl)c(Cl)cc2n1C1CCN(Cc2ccc(F)cc2Cl)CC1`, the inhibitory constant (Ki) in test [1] stood at 24.5 nM.
With `O=c1n(CCN2CCOCC2)c2cc(Cl)c(Cl)cc2n1C1CCN(Cc2ccccc2Cl)CC1`, in test [2], the “selectivity and affinity for MOP receptor and KOP receptor (in words)” value was “high selectivity and high affinity for MOP receptor and KOP receptor”. The Ki in test [1] was 38.1 nM.
Turning to `O=C1N(CCN2CCOCC2)Cc2cc(Cl)c(Cl)cc2N1C1CCN(Cc2ccc(F)cc2Cl)CC1`, the Ki in test [1] stood at 10.4 nM.
Consider `CN(C)CCn1c(=O)n(C2CCN(Cc3ccc(F)cc3Cl)CC2)c2cc(Cl)c(Cl)cc21`, for which the inhibition constant Ki in test [1] came to 5.7 nM.
The same measure, in the same setting: the value for `O=c1n(CCN2CCCCC2)c2cc(Cl)c(Cl)cc2n1C1CCN(Cc2ccc(F)cc2Cl)CC1` was 15.1 nM.
The same measure, in the same setting: to `CC(C)(C)C1CCC(N2CCC(n3c(=O)n(CCN4CCOCC4)c4cc(Cl)c(Cl)cc43)CC2)CC1` (stereo not shown) belongs 118 nM; to `Cc1cc(Cl)ccc1CN1CCC(n2c(=O)n(CCN3CCOCC3)c3cc(Cl)c(Cl)cc32)CC1`, 136 nM; to `CN1CCN(CCn2c(=O)n(C3CCN(Cc4ccc(F)cc4Cl)CC3)c3cc(Cl)c(Cl)cc32)CC1`, 20.2 nM.
Turning to `O=c1n(CCN2CCOCC2)c2cc(Cl)c(Cl)cc2n1C1CCN(Cc2ccc(F)cc2F)CC1`, the Ki in test [1] is 98.1 nM.
Same read-out and setting: to `Cc1ccc(CN2CCC(n3c(=O)n(CCN4CCOCC4)c4cc(Cl)c(Cl)cc43)CC2)c(C)c1` belongs 62.4 nM; to `O=c1n(CCN2CCOCC2)c2cc(Cl)c(Cl)cc2n1C1CCN(Cc2ccc(Cl)cc2Cl)CC1`, 53.4 nM; to `CC(C)[C@H]1CC[C@@H](N2CCC(n3c(=O)n(CCN4CCOCC4)c4cc(Cl)ccc43)CC2)CC1`, 167 nM.
As to `CN(C)C(=O)Cn1c(=O)n(C2CCN(Cc3ccc(F)cc3)CC2)c2cc(Cl)c(Cl)cc21`, the Ki in test [1] was 78.5 nM.
The same measure, in the same setting: the value for `O=c1n(CCN2CCOCC2)c2cc(Cl)c(Cl)cc2n1C1CCN(Cc2ccc(Cl)cc2)CC1` was 398 nM; that for `Cc1ccc2c(c1)n(CCN1CCOCC1)c(=O)n2C1CCN(Cc2ccccc2Cl)CC1` was 128 nM.
Consider `CC(C)[C@H]1CC[C@@H](N2CCC(n3c(=O)n(CCN4CCOCC4)c4cc(Cl)c(Cl)cc43)CC2)CC1`, for which, in test [2], the “selectivity and affinity for MOP receptor and NOP receptor (in words)” value is “high selectivity and high affinity for MOP receptor and NOP receptor”. Also, in test [1], the Ki was determined as 38.1 nM.
As to `O=c1n(CCN2CCCC2)c2cc(Cl)c(Cl)cc2n1C1CCN(Cc2ccc(F)cc2Cl)CC1`, the Ki in test [1] came out at 8.63 nM.
On the same count and under the same terms, to `Cc1ccc(CN2CCC(n3c(=O)n(CCN4CCOCC4)c4cc(Cl)c(Cl)cc43)CC2)c(Cl)c1` belongs 39.6 nM; to `Cc1cc(F)ccc1CN1CCC(n2c(=O)n(CCN3CCOCC3)c3cc(Cl)c(Cl)cc32)CC1`, 75.2 nM; to `O=c1n(CCN2CCOCC2)c2ccc(F)cc2n1C1CCN(Cc2ccccc2Cl)CC1`, 73.4 nM.
As for `CC(=O)N1CCN(CCn2c(=O)n(C3CCN(Cc4ccc(F)cc4Cl)CC3)c3cc(Cl)c(Cl)cc32)CC1`, the Ki in test [1] is 19.8 nM.
Still for that read-out and setting: to `O=c1n(CCN2CCOCC2)c2cc(F)c(Cl)cc2n1C1CCN(Cc2ccc(F)cc2Cl)CC1` belongs 46.6 nM; to `O=C1CCCN1CCn1c(=O)n(C2CCN(Cc3ccccc3Cl)CC2)c2cc(Cl)c(Cl)cc21`, 3.63 nM.
